This is an account of results in patent US20070231828A1 (published 2007).

SMILES strings stand for the structures. Read-outs that look alike come from different tables or passages of the source.

Test [1] has as its system Hh-responsive GLI-luciferase reporter in human prostate cancer cells. As to the kind of experiment: Gli-luciferase reporter assay. Format: cell-based. The following applies: 48 hours incubation, normalized to Renilla luciferase.
For test [2], the system named is 22RV1 cells overexpressing GLI. The following applies: over-expression of GLI.
The subject of test [3] is AT6.3 subcutaneous tumors.
For test [4], the system named is xenograft tumors from 22RV1 cells overexpressing GLI. The following applies: 22RV1 overexpressing GLI; 50 mg/kg/day.
Test [5] concerns 22RV1 xenograft tumors. Conditions: by the ninth day of treatment.
Test [6] concerns PC3 xenograft tumors. Conditions: for tumor growth: by the ninth day of treatment.
Test [7] deals with 22RV1-GLI cells. Conditions: stable overexpression of GLI.

As to `CC1=C2C[C@H]3[C@@H](CC=C4C[C@@H](O)CC[C@@]43C)[C@@H]2CC[C@]12O[C@@H]1C[C@H](C)CN[C@H]1[C@H]2C` [cyclopamine], the “Hh-responsive GLI-luciferase reporter activity” value is recorded as “fully suppressible” in test [1] and “bypassed by stable overexpression of GLI” in test [7]. Besides, the anti-proliferative effect result in test [2] was “bypass of cyclopamine blockade with over-expression of GLI”. In addition, the “rate of growth of primary subcutaneous tumors” value in test [3] (i.p. 10 mg/kg/day) was found to be 9.2 %/day; in test [3] (i.p. 50 mg/kg/day), 4.9 %/day. Besides, the tumor growth result in test [3] (subcutaneous injection 50 mg/kg/day, data not shown) is “blocks tumor growth altogether”; in test [4], “not affected”; in test [5] (10 mg/kg daily s.c.), “suppression of tumor growth”; in test [5] (50 mg/kg daily s.c.), “regression of tumors”; in test [6] (10 mg/kg daily s.c.), “suppression of tumor growth”; in test [6] (50 mg/kg daily s.c.) it was “regression of tumors”. For the same compound, in test [6] (after 28 days of 50 mg/kg), the “observation period after cessation of treatment without regrowth of tumors” value amounted to 86 days.
